Measurements from US20040006236A1, “Diaminopropionic acid derivatives” (priority 1999, published 2004).

Amino acid sequences for entries named in this document (tags omitted). Residues count along the entry.
UniProt P20701, 26-1170 limits assumed: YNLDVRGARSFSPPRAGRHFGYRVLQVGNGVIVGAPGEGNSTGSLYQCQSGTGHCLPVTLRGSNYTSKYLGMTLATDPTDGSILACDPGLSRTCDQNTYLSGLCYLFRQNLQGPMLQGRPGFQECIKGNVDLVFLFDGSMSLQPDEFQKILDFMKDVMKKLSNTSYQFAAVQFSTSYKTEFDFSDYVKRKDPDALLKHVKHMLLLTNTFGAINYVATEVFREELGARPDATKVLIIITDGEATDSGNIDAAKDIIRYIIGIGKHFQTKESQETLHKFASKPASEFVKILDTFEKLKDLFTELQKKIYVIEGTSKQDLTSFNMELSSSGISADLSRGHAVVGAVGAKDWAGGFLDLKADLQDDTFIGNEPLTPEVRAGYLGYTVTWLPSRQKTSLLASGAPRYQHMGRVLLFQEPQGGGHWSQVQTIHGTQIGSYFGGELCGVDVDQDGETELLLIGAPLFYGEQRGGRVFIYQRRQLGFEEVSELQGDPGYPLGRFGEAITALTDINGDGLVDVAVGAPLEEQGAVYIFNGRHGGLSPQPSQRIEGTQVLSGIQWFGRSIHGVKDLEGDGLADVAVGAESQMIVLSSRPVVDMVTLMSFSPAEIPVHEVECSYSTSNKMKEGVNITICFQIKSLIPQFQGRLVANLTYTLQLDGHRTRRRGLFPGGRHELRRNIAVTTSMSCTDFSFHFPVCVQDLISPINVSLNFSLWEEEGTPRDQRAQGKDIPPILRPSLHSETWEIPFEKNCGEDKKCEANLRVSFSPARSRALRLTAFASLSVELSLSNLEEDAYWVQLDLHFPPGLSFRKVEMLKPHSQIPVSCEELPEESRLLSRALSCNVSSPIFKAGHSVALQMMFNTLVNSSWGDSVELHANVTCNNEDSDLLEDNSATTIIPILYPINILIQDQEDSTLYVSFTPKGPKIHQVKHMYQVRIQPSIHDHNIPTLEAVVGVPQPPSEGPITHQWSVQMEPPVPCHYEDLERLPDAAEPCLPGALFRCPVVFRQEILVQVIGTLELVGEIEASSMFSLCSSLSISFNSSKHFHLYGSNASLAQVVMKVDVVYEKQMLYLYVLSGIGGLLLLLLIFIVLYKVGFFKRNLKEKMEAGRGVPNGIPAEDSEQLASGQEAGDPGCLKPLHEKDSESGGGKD

How the values were obtained:
[1] = target: ICAM-1 binding to immobilized Mac-1 (Homo sapiens, UniProt P05107+P11215); assay: Mac-1/ICAM-1 screening assay (solid-phase ELISA); conditions: read-out: Mac-1/ICAM-1 Protein-Protein Assay IC50
[2] = target: LFA-1 binding to immobilized ICAM-1 (Homo sapiens, UniProt P05107+P20701); assay: LFA-1/ICAM-1 protein-protein assay (solid-phase ELISA); conditions: read-out: LFA-1/ICAM-1 Protein-Protein Assay IC50
[3] = system: T lymphocyte proliferation (C57BI/6 spleen cells with irradiated BALB/c spleen cells); assay: Mixed lymphocyte reaction (MLR), one-way; conditions: read-out: MLR IC50
[4] = system: cell-surface Mac-1 adhesion to immobilized fibrinogen (HL-60 cells); assay: Mac-1/Fibrinogen cell-based screening assay; conditions: read-out: Mac-1/Fgn Cell based Assay IC50
[5] = system: Mac-1 and LFA-1-mediated neutrophil binding to immobilized ICAM-1; assay: Neutrophil (Mac-1 and LFA-1)/ICAM-1 cell-based screening assay; conditions: read-out: Neutrophil/ICAM Assay IC50; human neutrophils
Protocol: Both Mac-1 and LFA-1 are expressed on the cell surface of neutrophils. The ability of antagonists to inhibit Mac-1 and LFA-1-mediated neutrophil binding to immobilized ICAM-1 was quantitated by a cell based assay. Typically, fusion protein consisting of the entire extracellular domain of human ICAM-1 and the Fc domain of human IgG (5dICAM-Ig) was coated onto 96 well microtiter plates (1 μg in 100 μL TBS) overnight at 4° C. The plates were then blocked with 150 μL of 10% PVP in TBS for 1 h at 37° C. Plates were washed 3 times (150 μL each) with TBS. Human neutrophils were purified from whole blood from healthy volunteers using LSM (ICN). Cells (8×10^6/mL) were fluorescently labeled with 6-carboxyfluorescein (100 μg/mL) for 40 min in IMDM/1 mM MgCl2/1.2 mM CaCl2 as described in Example 287. Cells (8×10^6/mL) were stimulated with f-Met-Leu-Phe (10 μM) for 5 min at room temperature just prior to being used in the assay, and diluted to 2×10^6 cells/mL with RPMI/0.05% BSA/0.2 mM MnCl2. Stock solutions (10 mM) of test compounds were diluted to 2.5 mM with DMSO. A series of 1:4 dilutions in DMSO were performed to achieve a concentration range of 38.2 nM-2.5 mM. Each sample was further diluted 50-fold with RPMI/0.05% BSA/0.2 mM MnCl2. […] Unbound cells were washed and plates were read on a Cytofluor™ 2300 (Millipore) as described in Example 384.

| IC50 [1] [nM] | IC50 [2] [nM] | IC50 [4] [nM] | IC50 [5] [nM] | SMILES | IC50 [3] [nM] |
| --- | --- | --- | --- | --- | --- |
| 105 | 1.2 | – | – | O=C1CC(C(=O)NC[C@H](NC(=O)c2ccc(C(=O)NCc3cccc(O)c3)cc2Cl)C(=O)O)c2cc(Br)ccc2N1 (stereo partly drawn) | – |
| 55 | 6.8 | – | – | Cc1nc(C)c(C(=O)NC[C@H](NC(=O)c2ccc(C(=O)NCc3cccc(O)c3)cc2Cl)C(=O)O)s1 | 3750 |
| 32 | 1.2 | – | – | O=C(NCc1cccc(O)c1)c1ccc(C(=O)N[C@@H](CNC(=O)C2CCc3ccccc3C2)C(=O)O)c(Cl)c1 (stereo partly drawn) | 900 |
| – | 19 | – | – | CC(CC(=O)NC[C@H](NC(=O)c1c(Cl)cccc1Cl)C(=O)O)c1ccccc1 (stereo partly drawn) | 5500 |
| – | 3 | 52 | – | NC1CCCCN(CC(=O)NC[C@H](NC(=O)c2ccc(C(=O)NCc3cccc(O)c3)cc2Cl)C(=O)O)C1=O (stereo partly drawn) | 650 |
| 30 | 2.4 | – | – | O=C(NCc1cccc(O)c1)c1ccc(C(=O)N[C@@H](CNC(=O)C2CSCCC23OCCO3)C(=O)O)c(Cl)c1 (stereo partly drawn) | 680 |
| – | 2.6 | 358 | – | O=C(NCc1cccc(O)c1)c1ccc(C(=O)N[C@@H](CNC(=O)C2Cc3ccccc3N2)C(=O)O)c(Cl)c1 (stereo partly drawn) | 3100 |
| – | 1.1 | 27 | 35 | O=C(NCc1cc(O)cc(O)c1)c1ccc(C(=O)N[C@@H](CNC(=O)c2cccs2)C(=O)O)c(Cl)c1 | 85 |
| – | 34 | – | – | O=C1CC(C(=O)NC[C@H](NC(=O)c2c(Cl)cccc2Cl)C(=O)O)c2cc(Br)ccc2N1 (stereo partly drawn) | 31000 |
| 48 | 2.7 | – | – | CC(CC(=O)NC[C@H](NC(=O)c1ccc(C(=O)NCc2cccc(O)c2)cc1Cl)C(=O)O)c1ccccc1 (stereo partly drawn) | 2850 |
| 22 | – | – | – | O=C(NCc1cccc2[nH]ccc12)c1ccc(C(=O)N[C@@H](CNC(=O)c2cccs2)C(=O)O)c(Cl)c1 [Compound G, N-[2-chloro-4-[[(1H-indol-4-ylmethyl)amino]carbonyl]benzoyl]-3-(thiophene-2-carbonyl)amino-L-alanine] | 445 |
| 18 | 2.9 | 107 | – | NC1CC=CCC1C(=O)NC[C@H](NC(=O)c1ccc(C(=O)NCc2cccc(O)c2)cc1Cl)C(=O)O (stereo partly drawn) | 1000 |
| – | 3.3 | 155 | – | CC(N)CC(=O)NC[C@H](NC(=O)c1ccc(C(=O)NCc2cccc(O)c2)cc1Cl)C(=O)O (stereo partly drawn) | 1800 |
| – | 2.7 | 82 | – | NC1CCCC(C(=O)NC[C@H](NC(=O)c2ccc(C(=O)NCc3cccc(O)c3)cc2Cl)C(=O)O)C1 (stereo partly drawn) | 1640 |
| – | 7.2 | 1160 | – | NC(Cc1ccc(F)cc1)C(=O)NC[C@H](NC(=O)c1ccc(C(=O)NCc2cccc(O)c2)cc1Cl)C(=O)O (stereo partly drawn) | 13000 |
| – | 1.2 | 135 | – | CC(CN)C(=O)NC[C@H](NC(=O)c1ccc(C(=O)NCc2cccc(O)c2)cc1Cl)C(=O)O (stereo partly drawn) | 900 |
| 373 | 5 | – | – | O=C(NCc1cccc(O)c1)c1ccc(C(=O)N[C@@H](CNC(=O)c2ccc(CCC(Br)CBr)cn2)C(=O)O)c(Cl)c1 (stereo partly drawn) | – |
| – | 4.9 | 581 | – | NC(CC(=O)NC[C@H](NC(=O)c1ccc(C(=O)NCc2cccc(O)c2)cc1Cl)C(=O)O)C(F)(F)F (stereo partly drawn) | 2400 |
| 38 | 3.1 | – | – | CC1(C(=O)NC[C@H](NC(=O)c2ccc(C(=O)NCc3cccc(O)c3)cc2Cl)C(=O)O)CC1(Cl)Cl (stereo partly drawn) | 800 |
